IC50 data for one compound are collected here from ChEMBL document CHEMBL3425465, “Synthesis, antimalarial and antitubercular activities of meridianin derivatives” (Eur J Med Chem, 2015).

pIC50: −log10 of the molar value.

The experiment concerns LLC-PK1. The experiment is described as follows: Cytotoxicity against pig LLC-PK1 cells assessed as cell growth inhibition after 48 hrs by neutral red assay. The following applies: Sus scrofa, LLC-PK1, 48 h. It counts as cell-based.

As to `COc1cccc2c1C(=O)c1c(O)c3c(c(O)c1C2=O)C[C@@](O)(C(=O)CO)C[C@@H]3O[C@H]1C[C@H](N)[C@H](O)[C@H](C)O1` [DOXORUBICIN], the pIC50 was 5.59.
